{"source": "patent US6800639B2", "about": "“Pharmaceutical combination for the treatment of cancer” (Shire BioChem Inc., priority 2001, dated 2004)", "key": {"[1]": {"details": "25 mg/kg i.v. qd×5, non-tumored mice"}}}
{"smiles": "Nc1ccn([C@@H]2CO[C@H](CO)O2)c(=O)n1", "note": "[Troxacitabine, (−)-β-L-Dioxolane-Cytidine]", "values": [{"measurement": "deaths and weight loss", "setting": "10 mg/kg i.v. qd×5, non-tumored mice", "result": "no deaths or weight loss"}, {"measurement": "average weight loss on Day 5", "setting": "[1]", "result": "one"}, {"measurement": "deaths", "setting": "[1]", "result": "no deaths"}]}
